Results from PubChem BioAssay AID602429 (Sanford-Burnham Center for Chemical Genomics, 2012).
The entries are a selection whose mix differs from that of the whole data set. Some of these compounds have results that are not shown, active ones among them. The source made the active and inactive calls. Rule as the data show it: active = inhibition above about 37%; inactive = the rest.

Amino acid sequences for entries named in this document (tags omitted).
UniProt P63165, whole entry: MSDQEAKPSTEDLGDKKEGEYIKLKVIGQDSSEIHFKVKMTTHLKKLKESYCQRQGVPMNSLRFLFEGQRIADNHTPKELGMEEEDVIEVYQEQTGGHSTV

Each molecule was assayed against Small ubiquitin-related modifier 1 (Homo sapiens) (UniProt P63165) (assay: modulators of SUMO1 protein-protein interactions, primary screen, biochemical, uHTS (AID 602429)). Conditions: SUMO1 binding to a labelled peptide, TR-FRET, 1 h; at 20 µM; active compounds read high.

SMILES	inhibition
CC(C)Oc1ccc(C(=O)NCC2(N(C)C)CCCCC2)cc1	inactive: -0.348%
O=C(OCCN1CCCC1)C(O)(c1ccccc1)c1ccccc1	inactive: -6.01%
CN(C)c1cccc(C(=O)NCC2(N(C)C)CCCCC2)c1	inactive: 0.162%
C=C(C)C#CC(O)(C(=O)OC1CCN(C)CC1)c1ccccc1 (stereo unspecified)	inactive: -1.19%
COc1ccc(Br)c(C(=O)NCC2(N3CCCCC3)CCCCC2)c1	inactive: -2.55%
O=C(OC1CN2CCC1CC2)C(CO)(c1ccccc1)c1ccccc1 (stereo unspecified)	inactive: -1.24%
O=C(NCC1(N2CCCCC2)CCCCC1)c1cccc(Cl)c1	inactive: 2.76%
COc1cccc(C(=O)NCC2(N3CCCCC3)CCCCC2)c1	inactive: -1.89%
COc1ccc(Cl)cc1C(=O)NCC1(N(C)C)CCCCC1	inactive: -6.73%
COc1cc(C(=O)NCC2(N(C)C)CCCCC2)c([N+](=O)[O-])cc1OC	inactive: -12.5%
CN(C)C1(CNC(=O)c2ccc(Br)cc2)CCCCC1	inactive: 0.159%
COc1ccc(C(=O)NCC2(N(C)C)CCCCC2)cc1	inactive: 2.28%
CCN1CCCC(OC(=O)C2(O)c3ccccc3C=Cc3ccccc32)C1 (stereo unspecified)	inactive: -2.07%
Cc1cc(C(=O)NCC2(N3CCCCC3)CCCCC2)ccc1[N+](=O)[O-]	inactive: -22.1%
O=C(NCC1(N2CCCCC2)CCCCC1)c1cccc(Br)c1	inactive: 5.94%
C=CCN1CCN(CCOC(=O)C(O)(c2ccccc2)c2ccccc2)CC1	inactive: -0.493%
O=C(NCC1(N2CCCCC2)CCCCC1)c1cc(F)c(F)cc1Cl	inactive: -3.37%
Cc1ccccc1C(=O)NCC1(N2CCCCC2)CCCCC1	inactive: -2.06%
CN(C)c1ccc(C(=O)NCC2(N(C)C)CCCCC2)cc1	inactive: 2%
CN(C)C1CCCC1OC(=O)C(O)(c1ccccc1)c1ccccc1 (stereo unspecified)	inactive: -1.3%
Cc1ccc(C(=O)NCC2(N3CCCCC3)CCCCC2)cc1	inactive: 7.56%
CCN(CC)CC(C)C(C)OC(=O)C(O)(c1ccccc1)c1ccccc1 (stereo unspecified)	inactive: 4.13%
COc1cc(SC)ccc1C(=O)NCC1(N(C)C)CCCCC1	inactive: -0.0885%
CC(C)N1C(=O)CC2(CCN(CCOC(=O)C(O)(c3ccccc3)c3ccccc3)CC2)C1=O	inactive: 2.43%
CN1[C@@H]2CC[C@H]1CC(OC(=O)C(O)(c1ccccc1)c1ccccc1)C2 (stereo partly specified)	inactive: -0.858%
O=C(NCC1(N2CCCCC2)CCCCC1)c1cc([N+](=O)[O-])ccc1Cl	inactive: -20.1%
